{"source": "paper PMC6650433", "about": "“Evolution of metazoan oxygen-sensing involved a conserved divergence of VHL affinity for HIF1α and HIF2α” (Nature Communications, 2019)", "molecular_target": "VHL-elongin B-elongin C (VBC) complex, wild type, P40337;Q15370;Q15369", "experiment": "biolayer interferometry (BLI)", "conditions": "read off a plot"}
{"substance": "hydroxylated HIF1α peptide (556–573), biotinylated D570delinsGE", "values": [{"measurement": "koff", "setting": "parent: est. 0.0044 s-1", "value": 0.0049, "unit": "s⁻¹"}, {"measurement": "koff", "setting": "parent: est. 0.0047", "value": 0.0051, "unit": "s⁻¹"}, {"measurement": "kon", "setting": "parent: est. 26000 M-1 s-1", "value": 30000, "unit": "M⁻¹ s⁻¹"}]}
{"substance": "hydroxylated HIF2α peptide (523–541), biotinylated G537del", "values": [{"measurement": "kon", "setting": "parent: est. 40000 M-1 s-1", "value": 33000, "unit": "M⁻¹ s⁻¹"}]}
